# Screening results: PubChem, Broad Institute
# Yeast UUG start = alters start codon recognition fidelity in yeast. S. cerevisiae UUG-firefly luciferase reporter, luminescence/redox ratio. 350,000 tested, 0.13% active. activity score, % at 18.7 µM. AID 602363;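 active means replicate mean at a twofold rise or more, about +100% in these data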;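 further: firefly luciferase made from a UUG start codon reports start codon fidelity; reporter light over untreated wells divided by growth signal over untreated wells; some hits fall short of that in this replicate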
# E-sel inducer = induces E-selectin expression in human endothelial cells | hit rate 0.37% among 260,000 | HUVEC E-selectin immunofluorescence imaging; normalized: neutral wells 0, TNF-alpha wells 100 | AID 686992 | activation, % at 7.58 µM;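 active = mean E-selectin-positive cell signal at least 10% of the positive control, reached in at least 60% of replicates, without over 20% cell loss; inconclusive = no rule given, readout overlaps actives, possibly toxicity-flagged; inactive = the rest, including those meeting only one limit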
#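 Test system: HUVEC; input: 3,000 HUVEC/well; measured by: immunofluorescence imaging; read-out: % PE-positive cells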
# MLL AF4-AF9 inh = inhibitors of human MLL-AF4/AF9 interaction; P42568; AlphaScreen, biotin-AF4 peptide binding to FLAG-AF9; inhibition, % at 10 µM; hit rate 0.47% among 350,000;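 active = every replicate reaching a set inhibition limit, whatever the replicate mean, cut at about 25% in these data; inconclusive = mean inhibition reaches that limit but some replicates miss it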
# ARNT-TACC3 inh = ARNT/TACC3 interaction disruption; Q9Y6A5; AlphaScreen His-ARNT PAS-B/GST-TACC3 binding, luminescence; TACC3 fragment carries E629A point mutation; inhibition, % at 9.99 µM; hit rate 0.66% among 390,000; AID 623870;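 active = mean inhibition of replicates at least 50% and at least half of replicates each reaching 50%; inconclusive = half or more replicates reach 50% but mean below 50%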
# S100A4 inh HTS = blocks human S100A4 binding to myosin IIA peptide. P26447. S100A4/TAMRA-MyoIIA peptide fluorescence polarization. inhibition, % at 10.7 µM. hit rate 0.14% among 360,000. AID 652163;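 active = mean inhibition of at least 70% across replicates, with every replicate also reaching that level; inconclusive = mean inhibition reaches 70% but some replicates fall short; inactive = mean inhibition below 70%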
#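 Material: S100A4 monomer protein | Medium: HEPES pH 7.2 with CaCl2, KCl, NaCl, DTT, Triton | Reagent: Labelled myosin peptide probe, 5 nM | Doses: One dose per compound | Times: 5 min incubation before reading | Benchmarks: Neutral control DMSO, positive control TFP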
# ERAP1 inh = ERAP1 (human) enzyme inhibition | hit rate 0.15% among 340,000 | recombinant ERAP1, Leu-AMC fluorescence, 60 min | inhibition, % at 10.7 µM | AID 652197;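 active = mean replicate inhibition of at least 30%, or all replicates individually reaching that 30% level; inactive = mean below 30% and not every replicate reaching it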
# ARNT Alpha ctr-1 = interferes with AlphaScreen signal, flagging false ARNT-TACC3 hits | shares compounds with ARNT-TACC3 inh | His-ARNT PASB-GST AlphaScreen artifact counter-screen, luminescence | AC50, µM (top dose mostly 68 µM) | hit rate 50% among 1,200 | AID 651705;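 active = every separate test run was called active for a drop in luminescence, with AC50 within twice the top valid dose, actives reach about 71 µM in these data; inconclusive = the separate test runs disagree in their calls; inactive = all runs inactive, including signal change in the wrong direction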
# ARNT Alpha ctr-2 = counter-screen for ARNT-TACC3 inhibitors: AlphaScreen artifacts; shares compounds with ARNT-TACC3 inh; Dual-tagged His-ARNT PASB-GST AlphaScreen artifact counter-screen; AC50, µM; hit rate 70% among 45; AID 720564;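 active = luminescence drop, with half-maximal potency fitted within twice the sample's top valid dose, cut at about 70 µM in these data; inactive = the rest, including signal moving the wrong way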
# A number is an active result; n = inactive; u = inconclusive; x = no result. An excerpt weighted towards active compounds, which were near 1.3% of everything screened.
SMILES,Yeast UUG start,E-sel inducer,MLL AF4-AF9 inh,ARNT-TACC3 inh,S100A4 inh HTS,ERAP1 inh,ARNT Alpha ctr-1,others
O=C(Nc1nc(-c2ccccn2)cs1)c1ccc([N+](=O)[O-])o1,n,x,n,61,n,n,17µM,
Cc1cc(C(=O)Nc2nc(-c3ccccn3)cs2)ccc1[N+](=O)[O-],x,n,n,n,n,n,x,
O=C(Nc1nc(-c2ccccn2)cs1)c1cc(Cl)ccc1[N+](=O)[O-],x,n,n,58,n,n,18µM,
Cc1ccc(C(=O)Nc2nc(-c3ccccc3)cs2)o1,x,x,x,x,x,x,x,ARNT Alpha ctr-2=n
CC(=O)Nc1ccc(-c2csc(NC(=O)c3ccc(C)o3)n2)cc1,n,x,x,n,n,n,x,
COc1ccc(CN(C)C[C@H]2OCCCC[C@H](C)Oc3ccc(NS(=O)(=O)c4ccc(F)cc4)cc3C(=O)N([C@@H](C)CO)C[C@H]2C)cc1,n,x,n,n,n,n,x,
C[C@H]1CN([C@@H](C)CO)C(=O)c2cccc(NS(=O)(=O)c3ccc(F)cc3)c2O[C@@H]1CN(C)S(=O)(=O)c1ccccc1,n,n,n,n,n,n,x,
O=C(NCCCn1ccnc1)c1ccc2nccnc2c1,n,n,n,58,n,n,n,
O=C(NCCCn1ccnc1)c1ccc(Cl)cc1[N+](=O)[O-],x,x,n,x,n,n,x,
CC(C)(C)c1cc(C(=O)NCCCn2ccnc2)cc(C(C)(C)C)c1,n,x,n,61,n,n,n,
O=C(NCCCn1ccnc1)c1cc(Cl)cc(Cl)c1,n,n,n,n,n,n,x,
O=C(NCCCn1ccnc1)c1cc2cc([N+](=O)[O-])ccc2oc1=O,x,x,x,54,x,x,n,
Cc1noc(C)c1NC(=O)Nc1cccc2c1O[C@H](CN(C)Cc1ccc3c(c1)OCO3)[C@@H](C)CN([C@@H](C)CO)C2=O,n,n,n,n,n,n,x,
Cc1[nH]cnc1CN1CCc2c(c3ccccc3n2C)C1=O,n,n,n,28,n,n,n,
COc1cc(C2Nc3ccccc3C(=O)N2NS(C)(=O)=O)c([N+](=O)[O-])cc1OC (stereo not drawn),n,n,n,active,n,n,n,
CCS(=O)(=O)Nc1ccc2c(c1)C(=O)N(C)C[C@@H](OC)[C@@H](C)CN(C)[C@@H](C)CO2,n,n,n,n,n,n,x,
N#C[C@@H]1[C@@H](c2ccc(-c3ccc(F)cc3)cc2)[C@H](CO)N1c1nc(-c2ccccc2)cs1,n,n,n,56,n,n,58µM,
Cc1cccc(Oc2nc(-c3ccncc3)nc3ccccc23)c1,x,x,n,n,n,n,x,
Cc1cccc(Oc2nc(-c3ccccn3)nc3ccccc23)c1,n,n,n,65,n,x,n,
Cc1ccccc1Oc1nc(-c2ccccn2)nc2ccccc12,n,n,n,51,n,x,n,
Cc1ccccc1-c1cnc2c(c1)C(=O)N([C@@H](C)CO)C[C@@H](C)[C@H](CN(C)Cc1cccnc1)O2,n,n,n,n,n,n,x,
CCOc1cc2c(C#N)c(N3CCCC3)nc(N)c2c(N)n1,n,n,n,n,n,n,x,
CCCCN(CC)c1nc(N)c2c(N)nc(OCC)cc2c1C#N,n,x,x,10,x,x,n,
COc1ccc(C(=O)Nc2nc3ccccc3[nH]2)cc1,n,n,n,n,n,n,x,
COc1ccc(N(C(C)=O)c2nc3ccccc3[nH]2)cc1,n,x,n,53,n,n,n,
SMILES,Yeast UUG start,E-sel inducer,MLL AF4-AF9 inh,ARNT-TACC3 inh,S100A4 inh HTS,ERAP1 inh,ARNT Alpha ctr-1,others
CCCNC(=O)C[C@H]1CC[C@@H]2[C@H](COc3ccc(NS(=O)(=O)c4ccccc4C)cc3C(=O)N2C)O1,n,n,n,n,n,n,x,
COCc1ccc(O)c2ncccc12,n,x,x,75,x,x,16µM,
Cc1ccccc1NCc1ccc(O)c2ncccc12,n,x,n,n,n,n,x,
COc1ccc(N=Nc2ccc(O)c3ncccc23)cc1,n,x,x,n,n,n,x,
O=Nc1ccc(O)c2ncccc12,x,n,n,57,n,x,69µM,
Oc1ccc(Cn2ccnc2)c2cccnc12,x,n,u,58,n,n,6.2µM,
O=C(c1ccc(F)cc1)N1CC(=O)N2[C@H](C1)[C@@H](c1ccc(C#CC3CCCC3)cc1)[C@@H]2CO,x,x,n,x,n,n,x,
